Reference: patent US7615610B2, “Modified trafficking patterns for arrestin and G-protein-coupled receptors via arrestin-ubiquitin chimera” (Duke University, priority 2003, dated 2009)

Target: T1, V2Rβ2CT (Homo sapiens, UniProt P07550+P30518)
T1 construct: the first 342 amino acids of the V2R (Met1-Cys342); the last 72 amino acids of the β2AR (Leu342 to Leu 413); expressed in transfected cells; host or cells: HEK-293
Test: Confocal microscopy of arrestin trafficking with V2Rβ2CT in HEK-293 cells
Format: cell-based
Conditions: live HEK-293 cells expressing V2Rβ2CT, 15 min and longer
Procedure: HEK-293 cells were transiently transfected with either YFP-β-arrestin2 or YFP-β-arrestin2-Ub along with β2AR (A) or V2Rβ2CT (B). Cells were starved for one hour in serum free media. The distribution of YFP-β-arrestin2 and YFP-β-arrestin2-Ub was visualized before and after treatment with 10 μM isoproterenol(A) or AVP (B). Shown are representative confocal images of YFP-fluorescence followed in the same HEK-293 cells treated for 2, 15 and 30 min at 37° C.
HEK-293 cells on 10 cm dishes were transiently transfected with HA-β2AR, HA-V2R, HAβ2ARV2CT, or HAV2Rβ2CT, along with β-arr2-GFP, or YFP-βarrestin2, or YFP-β-arrestin2-Ub. Twenty-four hours post-transfection cells were plated on collagen-coated 35 mm glass bottom plates. Cells were starved for at least 2 hrs in serum free medium prior to stimulation. After stimulation cells were fixed with 4% paraformaldehyde. For visualizing HA-tagged receptors, fixed cells were permeabilized with 0.01% Triton in PBS containing 2% BSA for 20 min and incubated at room temperature with 12CA5 antibody at 1:500 dilution. The secondary antibody, antimouse IgG conjugated to TexasRed, followed this. Antibody incubations were done for one hour followed by repeated washes using PBS. Cells expressing low and equivalent levels of the fluorescent proteins were carefully selected to examine YFP-β-arrestins. […]

YFP-β-arrestin2: wild type β-arrestin2 tagged with YFP, comparator
distribution of YFP fluorescence after AVP: remained at the plasma membrane at longer time points
